## CycPeptMPDB entries from one study

Values of Kelly et al. 2021, doi:10.1021/jacs.0c06115, as listed in CycPeptMPDB.

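The data file gives no further conditions (lipid, pH, time, direction or concentration), and values from different papers need not be comparable. The list need not hold all peptides of the study. Peptides that the database sets to -10, its floor, are left out.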

PAMPA is the parallel artificial membrane permeability assay, which has no cells and reads passive diffusion. P is given in units of 10^-6 cm/s (from log10 values with two decimals); larger means faster passage.

* CC(=O)N1CCC[C@H]1C(=O)N(C)[C@H](CC(C)C)C(=O)N[C@@H]1C(=O)N[C@H](CC(C)C)C(=O)N(C)[C@H](CC(C)C)C(=O)N(C)[C@H](CC(C)C)C(=O)N[C@H](C)C(=O)N[C@@H](CC(C)C)C(=O)N2CCC[C@H]2C(=O)O[C@@H]1C: PAMPA 6.6 × 10^-6 cm/s
* CC(=O)N1CCC[C@H]1C(=O)N[C@@H]1C(=O)N[C@H](CC(C)C)C(=O)N(C)[C@H](CC(C)C)C(=O)N(C)[C@H](CC(C)C)C(=O)N(C)[C@@H](CC(C)C)C(=O)N(C)[C@@H](C)C(=O)N[C@@H](CC(C)C)C(=O)N2CCC[C@@H]2C(=O)O[C@@H]1C: PAMPA 7.6 × 10^-6 cm/s
* CC(=O)N1CCC[C@@H]1C(=O)N(C)[C@@H](CC(C)C)C(=O)N[C@@H]1C(=O)N[C@@H](CC(C)C)C(=O)N[C@H](CC(C)C)C(=O)N(C)[C@H](CC(C)C)C(=O)N[C@@H](C)C(=O)N[C@@H](CC(C)C)C(=O)N2CCC[C@@H]2C(=O)O[C@@H]1C: PAMPA 1.3 × 10^-6 cm/s
* CC(=O)N1CCC[C@H]1C(=O)N(C)[C@H](CC(C)C)C(=O)N[C@@H]1C(=O)N(C)[C@@H](CC(C)C)C(=O)N(C)[C@H](CC(C)C)C(=O)N(C)[C@H](CC(C)C)C(=O)N(C)[C@H](C)C(=O)N[C@@H](CC(C)C)C(=O)N2CCC[C@H]2C(=O)O[C@@H]1C: PAMPA 2.6 × 10^-6 cm/s
* CC(=O)N1CCC[C@H]1C(=O)N(C)[C@@H](CC(C)C)C(=O)N[C@@H]1C(=O)N[C@H](CC(C)C)C(=O)N(C)[C@H](CC(C)C)C(=O)N(C)[C@H](CC(C)C)C(=O)N[C@@H](C)C(=O)N[C@@H](CC(C)C)C(=O)N2CCC[C@@H]2C(=O)O[C@@H]1C: PAMPA 2.1 × 10^-6 cm/s
* CC(=O)N1CCC[C@H]1C(=O)N[C@@H]1C(=O)N[C@H](CC(C)C)C(=O)N[C@H](CC(C)C)C(=O)N(C)[C@H](CC(C)C)C(=O)N[C@H](CC(C)C)C(=O)N(C)[C@H](C)C(=O)N[C@@H](CC(C)C)C(=O)N2CCC[C@@H]2C(=O)O[C@@H]1C: PAMPA 3.2 × 10^-6 cm/s
* CC(=O)N1CCC[C@H]1C(=O)N(C)[C@@H](CC(C)C)C(=O)N[C@@H]1C(=O)N[C@H](CC(C)C)C(=O)N(C)[C@@H](CC(C)C)C(=O)N[C@@H](CC(C)C)C(=O)N(C)[C@@H](C)C(=O)N[C@H](CC(C)C)C(=O)N2CCC[C@H]2C(=O)O[C@@H]1C: PAMPA 4.9 × 10^-6 cm/s
* CC(=O)N1CCC[C@@H]1C(=O)N(C)[C@H](CC(C)C)C(=O)N[C@@H]1C(=O)N[C@@H](CC(C)C)C(=O)N[C@H](CC(C)C)C(=O)N[C@H](CC(C)C)C(=O)N[C@H](C)C(=O)N[C@@H](CC(C)C)C(=O)N2CCC[C@@H]2C(=O)O[C@@H]1C: PAMPA 0.047 × 10^-6 cm/s
* CC(=O)N1CCC[C@H]1C(=O)N(C)[C@H](CC(C)C)C(=O)N[C@@H]1C(=O)N[C@H](CC(C)C)C(=O)N[C@@H](CC(C)C)C(=O)N(C)[C@H](CC(C)C)C(=O)N[C@@H](C)C(=O)N[C@H](CC(C)C)C(=O)N2CCC[C@@H]2C(=O)O[C@@H]1C: PAMPA 1.2 × 10^-6 cm/s
* CC(=O)N1CCC[C@H]1C(=O)N(C)[C@@H](CC(C)C)C(=O)N[C@@H]1C(=O)N[C@H](CC(C)C)C(=O)N[C@H](CC(C)C)C(=O)N(C)[C@H](CC(C)C)C(=O)N(C)[C@H](C)C(=O)N[C@@H](CC(C)C)C(=O)N2CCC[C@H]2C(=O)O[C@@H]1C: PAMPA 0.74 × 10^-6 cm/s
* CC(=O)N1CCC[C@@H]1C(=O)N(C)[C@@H](CC(C)C)C(=O)N[C@@H]1C(=O)N[C@H](CC(C)C)C(=O)N[C@@H](CC(C)C)C(=O)N(C)[C@H](CC(C)C)C(=O)N(C)[C@@H](C)C(=O)N[C@@H](CC(C)C)C(=O)N2CCC[C@H]2C(=O)O[C@@H]1C: PAMPA 2.5 × 10^-6 cm/s
* CC(=O)N1CCC[C@H]1C(=O)N[C@@H]1C(=O)N(C)[C@H](CC(C)C)C(=O)N[C@H](CC(C)C)C(=O)N[C@H](CC(C)C)C(=O)N[C@H](CC(C)C)C(=O)N[C@@H](C)C(=O)N[C@@H](CC(C)C)C(=O)N2CCC[C@@H]2C(=O)O[C@@H]1C: PAMPA 0.014 × 10^-6 cm/s
* CC(=O)N1CCC[C@H]1C(=O)N(C)[C@H](CC(C)C)C(=O)N[C@@H]1C(=O)N(C)[C@@H](CC(C)C)C(=O)N[C@@H](CC(C)C)C(=O)N(C)[C@@H](CC(C)C)C(=O)N(C)[C@@H](C)C(=O)N[C@@H](CC(C)C)C(=O)N2CCC[C@H]2C(=O)O[C@@H]1C: PAMPA 5.6 × 10^-6 cm/s
* CC(=O)N1CCC[C@H]1C(=O)N(C)[C@H](CC(C)C)C(=O)N[C@@H]1C(=O)N[C@H](CC(C)C)C(=O)N[C@@H](CC(C)C)C(=O)N(C)[C@H](CC(C)C)C(=O)N(C)[C@H](C)C(=O)N[C@H](CC(C)C)C(=O)N2CCC[C@H]2C(=O)O[C@@H]1C: PAMPA 3.4 × 10^-6 cm/s
* CC(=O)N1CCC[C@@H]1C(=O)N(C)[C@H](CC(C)C)C(=O)N[C@@H]1C(=O)N[C@H](CC(C)C)C(=O)N[C@H](CC(C)C)C(=O)N(C)[C@H](CC(C)C)C(=O)N[C@@H](C)C(=O)N[C@H](CC(C)C)C(=O)N2CCC[C@H]2C(=O)O[C@@H]1C: PAMPA 2.1 × 10^-6 cm/s
* CC(=O)N1CCC[C@@H]1C(=O)N(C)[C@H](CC(C)C)C(=O)N[C@@H]1C(=O)N[C@H](CC(C)C)C(=O)N[C@@H](CC(C)C)C(=O)N(C)[C@H](CC(C)C)C(=O)N(C)[C@H](C)C(=O)N[C@@H](CC(C)C)C(=O)N2CCC[C@H]2C(=O)O[C@@H]1C: PAMPA 3.5 × 10^-6 cm/s
* CC(=O)N1CCC[C@H]1C(=O)N[C@@H]1C(=O)N(C)[C@H](CC(C)C)C(=O)N[C@H](CC(C)C)C(=O)N(C)[C@@H](CC(C)C)C(=O)N[C@H](CC(C)C)C(=O)N(C)[C@H](C)C(=O)N[C@@H](CC(C)C)C(=O)N2CCC[C@@H]2C(=O)O[C@@H]1C: PAMPA 3 × 10^-6 cm/s
* CC(=O)N1CCC[C@@H]1C(=O)N(C)[C@H](CC(C)C)C(=O)N[C@@H]1C(=O)N(C)[C@H](CC(C)C)C(=O)N(C)[C@H](CC(C)C)C(=O)N[C@H](CC(C)C)C(=O)N(C)[C@@H](C)C(=O)N[C@H](CC(C)C)C(=O)N2CCC[C@H]2C(=O)O[C@@H]1C: PAMPA 6.5 × 10^-6 cm/s

The 2 lowest values of PAMPA among the entries above:

structure (SMILES)	PAMPA (10^-6 cm/s)
CC(=O)N1CCC[C@H]1C(=O)N[C@@H]1C(=O)N(C)[C@H](CC(C)C)C(=O)N[C@H](CC(C)C)C(=O)N[C@H](CC(C)C)C(=O)N[C@H](CC(C)C)C(=O)N[C@@H](C)C(=O)N[C@@H](CC(C)C)C(=O)N2CCC[C@@H]2C(=O)O[C@@H]1C	0.014
CC(=O)N1CCC[C@@H]1C(=O)N(C)[C@H](CC(C)C)C(=O)N[C@@H]1C(=O)N[C@@H](CC(C)C)C(=O)N[C@H](CC(C)C)C(=O)N[C@H](CC(C)C)C(=O)N[C@H](C)C(=O)N[C@@H](CC(C)C)C(=O)N2CCC[C@@H]2C(=O)O[C@@H]1C	0.047